Reference: PMC10495264 (Nature Cell Biology, 2023)

System: TORC1-pathway genes
Conditions: cells cultured on the compound versus untreated libraries; re-analysis of published datasets ref 24, 25

Row | Compound | transposon events in TORC1-pathway genes (SATAY)
1 | C/C=C/C/C=C/CCC(=O)[C@H]1O[C@H]1C(N)=O [cerulenin] | under-represented
2 | CO[C@H]1C[C@@H]2CC[C@@H](C)[C@@](O)(O2)C(=O)C(=O)N2CCCC[C@H]2C(=O)O[C@H]([C@H](C)C[C@@H]2CC[C@@H](O)[C@H](OC)C2)CC(=O)[C@H](C)/C=C(\C)[C@@H](O)[C@@H](OC)C(=O)[C@H](C)C[C@H](C)/C=C/C=C/C=C/1C [rapamycin] | under-represented
3 | CO[C@H]1CCCC[C@@H](c2ccccc2)OC(=O)[C@@H](C)[C@@]2(O)O[C@H]([C@@H](C)[C@H](O)[C@H]2OC)[C@@H](C)/C=C/[C@H]1OC [soraphen A] | over-represented
